Like-named read-outs stand apart in the source and are kept apart here.
How the values were obtained:
[1] = HPLC
[2] = Thermodynamic solubility of AP1189 salts in 0.5 M and 0.2 M buffer solutions (Example 6, Tables 38a, 38b)

N-{3-[1-(2-nitrophenyl)-1H-pyrrol-2-yl]-allylidene}-aminoguanidinium succinate [AP1189 succinate]
ML conc. ([1]; Example 8, Ethanol:water 50:50 v/v %, mother liquor after cooling-only, 5° C.): 6.15 mg/mL
ML conc. ([1]; Example 8, Ethanol:water 50:50 v/v %, mother liquor after isolation (after anti-solvent addition), 5° C.): 6.14 mg/mL
ML conc. ([1]; Example 9, starting solvent 1-propanol:water (50:50% v/v), Final sample): 3.37 mg/mL
ML conc. ([1]; Example 9, starting solvent 1-propanol:water (50:50% v/v), sample After ASA 1 (40:60 v/v), 5° C.): 6.21 mg/mL
ML conc. ([1]; Example 10, starting solvent 1-propanol:water (50:50% v/v), anti-solvent water to 30:70% v/v, Final sample): 3.19 mg/mL
XRPD analysis of residual solids from solubility experiment ([2]; 0.5 M buffer, pH 1.2): Succinic acid was obtained
solubility, comparison of salts (in words) ([2]; 0.5 M buffers, succinate Pattern 1 compared with fumarate Pattern 1): Higher solubility
solubility at pH 1.2 (in words) ([2]; pH 1.2): high solubility

Source: US12661336B2, “Polymorphs of phenyl pyrrole aminoguandium salts” (SYNACT PHARMA APS, priority 2021, dated 2026)
